Source: PMC4008364, “Alleviation of behavioral hypersensitivity in mouse models of inflammatory pain with two structurally different casein kinase 1 (CK1) inhibitors” (Molecular Pain, 2014)

Chains of the proteins cited; added tags and fusions are not shown. Residues count along the entry.
UniProt P49674, 9-277 limits assumed: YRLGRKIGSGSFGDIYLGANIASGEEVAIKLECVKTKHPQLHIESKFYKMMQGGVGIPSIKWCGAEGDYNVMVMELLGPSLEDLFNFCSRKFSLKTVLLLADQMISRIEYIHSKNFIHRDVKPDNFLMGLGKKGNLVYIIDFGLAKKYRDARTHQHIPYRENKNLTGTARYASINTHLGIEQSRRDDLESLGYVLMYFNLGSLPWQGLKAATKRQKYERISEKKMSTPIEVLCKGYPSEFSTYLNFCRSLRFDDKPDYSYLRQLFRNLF

Columns and labels:
CK1δ = target: T1, CK1δ (Homo sapiens, UniProt P48730); experiment: In vitro kinase assay (QuickScout mobility shift assay), CK1δ; assay type: biochemical; conditions: substrate peptide CKtide; ATP at Km 7.7 μM; average of duplicated experiments
T1 construct: Catalytic domain of CK1δ was expressed as N-terminal GST-fusion protein in E. coli; GST (N); purchased Carna Biosciences, Inc; host or cells: E. coli
T1 sequence (P48730 9-277 limits assumed): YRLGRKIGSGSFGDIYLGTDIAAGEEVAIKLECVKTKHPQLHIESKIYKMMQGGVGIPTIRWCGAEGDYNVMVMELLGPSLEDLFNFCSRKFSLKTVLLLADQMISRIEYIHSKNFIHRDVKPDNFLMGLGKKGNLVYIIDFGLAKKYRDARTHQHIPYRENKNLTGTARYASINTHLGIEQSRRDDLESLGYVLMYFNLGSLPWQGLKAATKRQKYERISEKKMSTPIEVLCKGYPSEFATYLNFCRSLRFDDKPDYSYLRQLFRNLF
Description: (§1) […]; Carna Biosciences, Inc., Kobe, Japan). Detailed information on the assay condition is available on the website of Carna Biosciences (http://www.carnabio.com). Full-length human CK1α, CK1γ1, CK1γ2, CK1γ3 and catalytic domain of human CK1ϵ were expressed as N-terminal GST-fusion protein using baculovirus system, and purified by using glutathione sepharose chromatography. Catalytic domain of CK1δ was expressed as N-terminal GST-fusion protein in E. coli, and purified by using glutathione sepharose chromatography.

human CK1ϵ = target: T2, human CK1ϵ (Homo sapiens, UniProt P49674); experiment: In vitro kinase assay (QuickScout mobility shift assay), CK1ϵ; assay type: biochemical; conditions: substrate peptide CKtide; ATP at Km 16 μM; average of duplicated experiments
T2 construct: catalytic domain of human CK1ϵ were expressed as N-terminal GST-fusion protein; GST (N); purchased Carna Biosciences, Inc; host or cells: baculovirus system (insect cells)
T2 sequence (P49674 9-277 limits assumed): T1 sequence (P48730 9-277 limits assumed) with T19A, D20N, A23S, I47F, T59S, R61K, A241S
Description: as §1

`CCN1/C(=C/C(C)=O)Sc2ccc(OC)cc21` [TG003] gave an IC50 (CK1δ) of 0.34 µM and an IC50 (human CK1ϵ) of 1.4 µM.

Changes are numbered by the printed parent chain.
